Laboratory results as given in US7211395 (dated 2007).

Chains of the proteins cited; added tags and fusions are not shown. Residues count along the entry.
UniProt P07724, 25-608: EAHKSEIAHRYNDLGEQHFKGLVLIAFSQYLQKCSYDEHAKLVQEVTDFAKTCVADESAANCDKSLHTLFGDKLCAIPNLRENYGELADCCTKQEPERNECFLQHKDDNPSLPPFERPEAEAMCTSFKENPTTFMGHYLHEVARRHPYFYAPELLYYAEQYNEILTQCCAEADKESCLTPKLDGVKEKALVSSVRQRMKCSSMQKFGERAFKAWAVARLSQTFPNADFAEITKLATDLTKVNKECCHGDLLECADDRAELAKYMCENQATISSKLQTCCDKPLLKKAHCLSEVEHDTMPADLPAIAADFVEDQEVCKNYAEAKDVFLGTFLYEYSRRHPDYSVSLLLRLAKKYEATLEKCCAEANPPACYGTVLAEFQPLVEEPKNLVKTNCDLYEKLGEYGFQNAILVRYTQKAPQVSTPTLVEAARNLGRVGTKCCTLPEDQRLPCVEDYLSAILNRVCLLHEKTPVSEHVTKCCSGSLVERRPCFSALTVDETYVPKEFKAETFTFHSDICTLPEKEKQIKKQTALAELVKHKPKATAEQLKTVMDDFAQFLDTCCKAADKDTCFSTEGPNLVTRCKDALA
UniProt P02769, 25-607: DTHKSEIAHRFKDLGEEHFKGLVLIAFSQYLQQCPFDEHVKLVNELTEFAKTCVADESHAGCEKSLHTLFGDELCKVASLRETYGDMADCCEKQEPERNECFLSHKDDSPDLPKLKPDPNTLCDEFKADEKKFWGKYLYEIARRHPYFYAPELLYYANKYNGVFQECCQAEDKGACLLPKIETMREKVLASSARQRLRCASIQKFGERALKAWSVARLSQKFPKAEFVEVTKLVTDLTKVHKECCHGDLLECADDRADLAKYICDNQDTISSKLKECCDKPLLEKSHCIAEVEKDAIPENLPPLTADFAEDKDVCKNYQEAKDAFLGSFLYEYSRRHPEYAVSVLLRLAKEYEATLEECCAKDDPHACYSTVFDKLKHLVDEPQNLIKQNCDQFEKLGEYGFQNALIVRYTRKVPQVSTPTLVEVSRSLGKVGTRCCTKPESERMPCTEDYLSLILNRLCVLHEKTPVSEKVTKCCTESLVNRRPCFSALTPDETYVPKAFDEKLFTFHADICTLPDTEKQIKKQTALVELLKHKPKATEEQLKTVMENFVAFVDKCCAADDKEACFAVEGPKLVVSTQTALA

How the values were obtained:
[1] = molecular target: T1, human serum albumin (HSA) (human, UniProt P02768); assay: FP
[2] = molecular target: T2, rat serum albumin (rat, UniProt P02770); assay: FP, PBS pH 7.4
T2 chain: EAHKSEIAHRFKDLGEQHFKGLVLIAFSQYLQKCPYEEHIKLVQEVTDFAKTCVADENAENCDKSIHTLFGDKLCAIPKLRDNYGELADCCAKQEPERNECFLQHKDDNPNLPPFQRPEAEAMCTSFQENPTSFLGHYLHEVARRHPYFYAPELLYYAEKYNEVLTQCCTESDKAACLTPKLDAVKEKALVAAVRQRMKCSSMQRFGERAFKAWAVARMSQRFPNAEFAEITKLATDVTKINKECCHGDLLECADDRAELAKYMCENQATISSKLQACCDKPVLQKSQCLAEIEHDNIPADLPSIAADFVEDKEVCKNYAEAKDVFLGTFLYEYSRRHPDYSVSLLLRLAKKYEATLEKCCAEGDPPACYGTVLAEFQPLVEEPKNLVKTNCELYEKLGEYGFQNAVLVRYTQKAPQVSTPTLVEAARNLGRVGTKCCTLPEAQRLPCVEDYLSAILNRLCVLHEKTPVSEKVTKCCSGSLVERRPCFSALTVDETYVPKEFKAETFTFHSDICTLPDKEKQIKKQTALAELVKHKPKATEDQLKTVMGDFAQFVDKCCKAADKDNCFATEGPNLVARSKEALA

[3] = molecular target: T3, rabbit serum albumin (rabbit, UniProt P49065); assay: FP, PBS pH 7.4
T3 chain: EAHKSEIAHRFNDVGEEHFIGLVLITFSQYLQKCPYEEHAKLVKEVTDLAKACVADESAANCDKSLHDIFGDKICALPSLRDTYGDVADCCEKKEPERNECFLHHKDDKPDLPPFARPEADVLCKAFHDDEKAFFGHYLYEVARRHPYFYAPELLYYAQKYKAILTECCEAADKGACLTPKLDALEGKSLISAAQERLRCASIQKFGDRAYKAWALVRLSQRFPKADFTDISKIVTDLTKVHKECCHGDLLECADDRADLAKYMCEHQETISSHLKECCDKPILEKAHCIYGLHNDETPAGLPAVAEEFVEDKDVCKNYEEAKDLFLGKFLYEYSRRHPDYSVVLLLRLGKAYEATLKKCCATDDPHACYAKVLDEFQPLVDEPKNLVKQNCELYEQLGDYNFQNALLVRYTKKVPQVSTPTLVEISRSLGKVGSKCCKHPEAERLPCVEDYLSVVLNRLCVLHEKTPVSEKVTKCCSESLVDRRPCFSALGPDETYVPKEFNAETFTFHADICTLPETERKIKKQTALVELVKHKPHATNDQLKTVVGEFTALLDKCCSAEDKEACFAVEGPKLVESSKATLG

[4] = molecular target: T4, pig serum albumin (pig, UniProt P08835); assay: FP, PBS pH 7.4
T4 chain: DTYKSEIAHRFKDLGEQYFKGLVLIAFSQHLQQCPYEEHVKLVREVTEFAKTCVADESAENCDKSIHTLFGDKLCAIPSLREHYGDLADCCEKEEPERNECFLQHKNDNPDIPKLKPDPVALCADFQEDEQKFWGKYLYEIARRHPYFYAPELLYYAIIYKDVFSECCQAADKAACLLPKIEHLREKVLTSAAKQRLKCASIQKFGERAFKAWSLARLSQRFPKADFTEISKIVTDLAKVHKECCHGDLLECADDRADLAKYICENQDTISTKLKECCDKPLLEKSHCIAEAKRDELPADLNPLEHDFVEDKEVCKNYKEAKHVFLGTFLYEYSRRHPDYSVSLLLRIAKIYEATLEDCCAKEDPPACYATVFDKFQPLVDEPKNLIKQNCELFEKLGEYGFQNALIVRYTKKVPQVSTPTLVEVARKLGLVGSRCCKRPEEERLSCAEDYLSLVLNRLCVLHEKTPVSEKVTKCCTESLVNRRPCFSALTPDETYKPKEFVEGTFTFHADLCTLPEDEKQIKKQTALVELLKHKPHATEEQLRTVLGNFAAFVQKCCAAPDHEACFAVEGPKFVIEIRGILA

[5] = molecular target: T5, mouse serum albumin (mouse, UniProt P07724); assay: FP, PBS pH 7.4
[6] = molecular target: T6, bovine serum albumin (bovine, UniProt P02769); assay: FP, PBS pH 7.4
[7] = molecular target: T7, rhesus serum albumin (rhesus macaque, UniProt Q28522); assay: FP, PBS pH 7.4
T7 chain: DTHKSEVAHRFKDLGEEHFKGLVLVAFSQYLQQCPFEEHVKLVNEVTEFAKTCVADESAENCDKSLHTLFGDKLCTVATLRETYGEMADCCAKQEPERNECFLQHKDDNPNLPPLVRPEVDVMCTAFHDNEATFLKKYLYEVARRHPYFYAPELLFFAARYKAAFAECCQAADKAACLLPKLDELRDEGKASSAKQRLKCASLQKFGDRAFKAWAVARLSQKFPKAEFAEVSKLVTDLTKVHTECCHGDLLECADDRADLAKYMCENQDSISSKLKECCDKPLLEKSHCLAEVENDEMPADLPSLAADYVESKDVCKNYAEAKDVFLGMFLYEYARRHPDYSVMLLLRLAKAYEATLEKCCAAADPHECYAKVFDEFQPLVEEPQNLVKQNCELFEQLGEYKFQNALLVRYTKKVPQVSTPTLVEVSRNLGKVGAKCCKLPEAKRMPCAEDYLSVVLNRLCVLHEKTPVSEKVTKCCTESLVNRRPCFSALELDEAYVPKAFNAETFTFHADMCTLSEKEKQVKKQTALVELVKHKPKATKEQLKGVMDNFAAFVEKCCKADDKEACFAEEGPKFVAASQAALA

[8] = molecular target: T1, human serum albumin (HSA); assay: FP, PBS pH 7.4
[9] = molecular target: T7, rhesus serum albumin; assay: FP, pH 6.2, no NaCl
[10] = molecular target: T5, mouse serum albumin; assay: FP, pH 6.2, no NaCl
[11] = molecular target: T6, bovine serum albumin; assay: FP, pH 6.2, no NaCl
[12] = molecular target: T2, rat serum albumin; assay: FP, pH 6.2, no NaCl
[13] = molecular target: T1, human serum albumin (HSA); assay: FP, pH 6.2, no NaCl
[14] = molecular target: T1, human serum albumin (HSA); assay: FP, pH 6.2, no NaCl; remark: listed apart in the source
[15] = molecular target: T1, human serum albumin (HSA); assay: FP, pH 6.2, no NaCl; remark: listed apart in the source
[16] = molecular target: T1, human serum albumin (HSA); assay: FP, pH 7.4, 0.14 M NaCl

Binder: AEGTGDFWFCDRIAWYPQHLCEFLDPEGGGK (disulfide cyclic, N-acetyl, C-amide, fluorescein on Lys; also SEQ32) [DX-236]
- Kd [1]: 1900 nM
- Kd [2]: 25 µM
- Kd [3]: 18 µM
- Kd [4]: 12 µM
- Kd [5]: 32 µM
- Kd [6]: 13.3 µM
- Kd [7]: 23 µM
- Kd [8]: 11 µM
- Kd [9]: 1100 nM
- Kd [10]: 5.5 µM
- Kd [11]: 1100 nM
- Kd [12]: 1600 nM
- Kd [13]: 1900 nM
- Kd [14]: 1900 nM
- Kd [15]: 1700 nM
- Kd [16]: 11 µM
